This is an account of results in US9376380B2 (University of Pittsburgh—Of the Commonwealth System of …, priority 2011, dated 2016).

By UniProt entry, the sequences of proteins in these tests, tags left out.
UniProt P34972, whole entry: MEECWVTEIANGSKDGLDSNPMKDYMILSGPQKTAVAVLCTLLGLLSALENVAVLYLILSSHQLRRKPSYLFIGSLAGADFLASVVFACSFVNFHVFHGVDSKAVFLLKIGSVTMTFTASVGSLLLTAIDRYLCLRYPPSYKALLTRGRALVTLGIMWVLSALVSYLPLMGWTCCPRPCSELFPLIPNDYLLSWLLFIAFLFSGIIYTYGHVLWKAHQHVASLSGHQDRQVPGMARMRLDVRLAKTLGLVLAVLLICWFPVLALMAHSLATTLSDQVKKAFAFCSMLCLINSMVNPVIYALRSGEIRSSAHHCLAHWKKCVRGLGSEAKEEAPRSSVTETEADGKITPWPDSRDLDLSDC
UniProt P21554, whole entry: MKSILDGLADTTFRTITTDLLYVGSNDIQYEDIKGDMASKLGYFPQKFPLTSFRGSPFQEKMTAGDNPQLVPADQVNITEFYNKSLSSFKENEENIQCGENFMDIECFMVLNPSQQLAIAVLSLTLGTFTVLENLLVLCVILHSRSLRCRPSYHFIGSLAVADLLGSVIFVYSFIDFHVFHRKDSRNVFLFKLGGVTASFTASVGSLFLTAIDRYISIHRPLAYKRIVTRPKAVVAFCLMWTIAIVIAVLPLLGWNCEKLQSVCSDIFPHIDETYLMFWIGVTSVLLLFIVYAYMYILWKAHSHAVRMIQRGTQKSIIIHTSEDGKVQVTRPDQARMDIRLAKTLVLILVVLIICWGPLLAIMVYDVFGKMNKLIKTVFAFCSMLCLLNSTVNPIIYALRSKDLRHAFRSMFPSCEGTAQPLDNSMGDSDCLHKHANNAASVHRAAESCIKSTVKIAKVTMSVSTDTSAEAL

One experiment addresses CB2 receptor (Homo sapiens, UniProt P34972). Briefly: [3H]CP-55,940 radioligand competition binding, CB2. Also noted: host or cells: cell membrane preparations. The note with it: for SI: selectivity index for CB2: Ki(CB1)/Ki(CB2) ratio. For orientation: Displacement assays read how much labelled ligand stays bound in the presence of the test substance.
The next experiment concerns the target CB1 receptor (Homo sapiens, UniProt P21554). Briefly: [3H]CP-55,940 radioligand competition binding, CB1. To be noted: read-out: Ki (CB1); [3H]CP-55,940 displacement.

The Ki is a measure of affinity in units of concentration, obtained from inhibition or displacement.

`CCN(CC)c1ccc(CN(c2ccc(C)cc2)S(=O)(=O)c2ccc(C)cc2)cc1` [Compound 94, N-(4-(Diethylamino)benzyl)-4-methyl-N-(p-tolyl)benzenesulfonamide]: the “SI: selectivity index for CB2” value at CB2 receptor was 80. Further, the Ki on CB1 receptor is 437 nM.

For `CCN(CC)c1ccc(CN(C23CC4CC(CC(C4)C2)C3)S(=O)(=O)c2ccc(F)cc2)cc1` [Compound 57, N-((3s,5s,7s)-Adamantan-1-yl)-N-(4-(diethylamino)benzyl)-4-fluorobenzenesulfonamide], at CB2 receptor, the “SI: selectivity index for CB2” value came out at 170.

`CCN(CC)c1ccc(CN(C23CC4CC(CC(C4)C2)C3)S(=O)(=O)c2cccc(C)c2)cc1` [Compound 61, N-((3s,5s,7s)-Adamantan-1-yl)-N-(4-(diethylamino)benzyl)-3-methylbenzenesulfonamide]: on CB2 receptor, the “SI: selectivity index for CB2” value came to 432.

Regarding `CCN(CC)c1ccc(CN(C23CC4CC(CC(C4)C2)C3)S(=O)(=O)c2ccc(C)cc2)cc1` [Compound 60, N-((3s,5s,7s)-Adamantan-1-yl)-N-(4-(diethylamino)benzyl)-4-methylbenzenesulfonamide], at CB2 receptor ([3H]CP-55,940 displacement), the Ki turned out to be 47 nM.
